{"source": "patent US3997543A", "about": "(priority 1974, dated 1976)", "tested_on": "Mice Eyes", "assay": "Antagonism of mydriasis induced by phencyclidine in mice eyes", "assay_type": "in vivo", "details": "Conc. 2 . 10^-1 M; mydriasis by 10^-2 M phencyclidine HCl; >15 equals blank"}
{"smiles": "CC(=O)OC1C[N+]2(C)CCC1CC2", "note": "(racemic)", "values": [{"measurement": "Reversal of Mydriasis Time", "result": "> 15", "unit": "min"}]}
